The values below come from PMC4468146.

In the assay the target is human glucagon receptor (GCGR), C-terminal Flag-tagged (human) (UniProt P47871).

Take glucagon (ligand): the intracellular cAMP (ELISA) in GCGR-Flag transfected CHO cells, glucagon 0.001 nM to 100 nM for 30 minutes was determined as 0.41 nM.
